The list shows a part of the results, in another mix than the full data. Records with an inconclusive call do not appear. Active and inactive are the calls of the source.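 Rule for the calls: active = more than half of the replicate wells show a fall in the fluorescence ratio signal beyond about 16% (limit read from the data, passing the limit was not always enough); inconclusive = exactly half of the replicate wells pass the set limit; inactive = fewer than half of replicates pass the limit.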

This experiment deals with Ran GTPase (GTP-bound) - importin-beta complex. Kind of experiment: disruptors of Ran-importin-beta complex formation – biochemical, FRET, CFP-Ran, YFP-importin-beta, homogeneous, primary screen (AID 2216).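 Note: 0% = DMSO wells and 100% = Ran loaded with GDP instead of GTP.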 The note with it: cell-free CFP-Ran/YFP-importin-beta FRET ratio; stronger effect = higher value; concentration not given here.
With `CCOP(=O)(Nc1cccc2ccccc12)OCC`, the inhibition was inactive: 0.512%. The figure for `Cc1ccc(C)c(NP(C)(=O)Oc2ccccc2)c1` (stereo not given) is inactive: -2.72%; for `CCCOP(=S)(Nc1nc(N)cc(=O)[nH]1)OCCC` it is inactive: -3.23%. The figure for `Nc1cccc2c([As](=O)(O)O)cccc12` is inactive: 1.88%; for `Cc1ccc(NCCc2c([N+](=O)[O-])cc([N+](=O)[O-])cc2[N+](=O)[O-])cc1` it is inactive: -0.287%; for `Cc1cc(C)cc(OP(C)(=O)Nc2ccccn2)c1` (stereo not given) it is inactive: -0.46%. The figure for `CP(=O)(Nc1cccc(Br)c1)Oc1ccccc1` (stereo not given) is inactive: 0.885%; for `CCOC(=O)c1ccc(NP(C)(=O)Oc2cc(C)cc(C)c2)cc1` (stereo not given) it is inactive: -1.54%.

Take `Cc1cccc(OCC(=O)OC2CN3CCC2CC3)c1` (stereo not given): the inhibition was inactive: 1.2%.

Regarding `O=[As](O)(c1cccc(O)c1)c1cccc(O)c1`, the inhibition is inactive: 3.52%. The figure for `CS(=O)(=O)c1ccc(Cl)c(NC(=O)COC(=O)C(O)(c2ccccc2)c2ccccc2)c1` is inactive: -3.84%; for `COc1ccccc1OP(C)(=O)Nc1cccc(Br)c1` (stereo not given) it is inactive: 0.821%. `O=[As](O)(O)c1cccnc1`: the inhibition was inactive: 1.16%. The figure for `COc1cc(C(=O)NCC2(N3CCOCC3)CCCCC2)cc(Cl)c1OC(C)C` is inactive: -1.77%.

For `O=C(OC1CN2CCC1CC2)c1ccc(Cl)cc1` (stereo not given), the inhibition is inactive: 4.38%. On to `COc1ccc(N/C(=N/P(=O)(N2CCOCC2)N2CCOCC2)N2CCOCC2)cc1`, for which the inhibition was inactive: 0.915%.

`COc1cc(I)ccc1[As](=O)(O)O`: the inhibition was inactive: -1.46%. The figure for `COc1ccc2nc(NP(=O)(c3ccccc3)c3ccccc3)sc2c1` is inactive: -0.608%; for `CCN(CC)CCCOC(=O)C(O)(c1ccccc1)c1ccccc1` it is inactive: -0.728%; for `Cc1cc(=O)[nH]c(N[N+](=O)[O-])n1` it is inactive: 7.6%. The figure for `O=C(OC1CN2CCC1CC2)C12CC3CC(CC(C3)C1)C2` (stereo not given) is inactive: -0.521%; for `Cc1c2c(nc3ccccc13)SC(C(Cl)Cl)C2` (stereo not given) it is inactive: -1.54%; for `Cc1cc(C)cc(OP(C)(N)=O)c1` (stereo not given) it is inactive: 0.156%. The figure for `COc1ccc(OP(C)(=O)Nc2cccc(F)c2)cc1` (stereo not given) is inactive: -1.34%.

`O=[N+]([O-])c1cc([N+](=O)[O-])c(-c2ccn[nH]2)s1`: the inhibition was inactive: 2.71%. The figure for `CC(C)NC(=O)NP(=O)(Oc1ccccc1)Oc1ccccc1` is inactive: 0.871%; for `CCN(CC)C(=S)SC(NC=O)C(Cl)(Cl)Cl` (stereo not given) it is inactive: 0.68%. The figure for `CC(C)c1ccc(OP(=O)(Nc2ccccn2)Oc2ccccc2F)cc1` (stereo not given) is inactive: 1.88%; for `Cc1ccc(NP(C)(=O)Oc2ccccc2)c(C)c1` (stereo not given) it is inactive: 2.9%; for `COc1ccccc1OP(C)(=O)Nc1ccc(C)cc1` (stereo not given) it is inactive: 5.68%. The figure for `ClCCSc1nnc(-c2cccnc2)o1` is inactive: 1.89%; for `CCOC(=O)c1ccc(NP(C)(=O)Oc2ccccc2)cc1` (stereo not given) it is inactive: 2.43%.

On to `O=[N+]([O-])c1ccc2c(c1)C=Nc1ccccc1O2`, for which the inhibition was inactive: -3.14%. For `Cc1ccc2nc3c(c(C)c2c1)CC(C(Cl)Cl)S3` (stereo not given), the inhibition is inactive: 0.957%. The figure for `Cc1cccc(C)c1OP(C)(N)=O` (stereo not given) is inactive: -0.444%; for `Cc1ccc(OP(=O)(Nc2ccc([N+](=O)[O-])cn2)Oc2ccc(C)cc2)cc1` it is inactive: 1.25%.

With `CC(C)(C)c1ccc(OP(C)(=O)Nc2ccc(SC(F)(F)F)cc2)cc1` (stereo not given), the inhibition is inactive: 6.23%. In the case of `C[As](=O)(O)c1cccc(C(=O)O)c1`, the inhibition was inactive: 2.33%. The figure for `O=[As](O)(c1ccc(O)cc1)c1ccccc1O` is inactive: 0.712%. Consider `O=[N+]([O-])c1cc([N+](=O)[O-])c(Nc2cccnc2)c([N+](=O)[O-])c1`, for which the inhibition is inactive: -4.38%. The figure for `O=[N+]([O-])c1ccc(Nc2ccc(Oc3ccc([N+](=O)[O-])cc3[N+](=O)[O-])cc2)c([N+](=O)[O-])c1` is inactive: -1.68%; for `CP(=O)(Nc1ccccc1Br)Oc1ccccc1` (stereo not given) it is inactive: 6.98%; for `COc1ccccc1OP(C)(=O)Nc1ccccc1` (stereo not given) it is inactive: 0.601%. The figure for `Cc1cc(SC(NC=O)C(Cl)(Cl)Cl)ncn1` (stereo not given) is inactive: 2.99%; for `O=P(Nc1ccccn1)(c1cccc2ccccc12)c1cccc2ccccc12` it is inactive: -3.4%; for `CCOC(=O)Nc1cccc([As](=O)(O)O)c1` it is inactive: 0.387%. The figure for `CP(=S)(Nn1cnnc1)Oc1ccccc1` (stereo not given) is inactive: -1.48%; for `Cc1cc(SC(NC(=O)c2ccccc2)C(Cl)(Cl)Cl)nc(C(C)C)n1` (stereo not given) it is inactive: 6.54%.

`CCCCOc1ccc(C(=O)NCC2(N3CCCCC3)CCCCC2)cc1OC`: the inhibition was inactive: -0.0148%. The figure for `CCOC(=O)Nc1ccc([As](=O)(O)O)c(O)c1` is inactive: 7.2%. The figure for `CCC(C)N(CC(C)C)C(=S)SC(NC(C)=O)C(Cl)(Cl)Cl` (stereo not given) is inactive: 8.95%. The figure for `O=[N+]([O-])c1cc([N+](=O)[O-])c(O)c([N+](=O)[O-])c1.c1ccc(Oc2ccncc2)cc1` is inactive: -0.441%. As for `CCOC(=O)c1ccc(NP(C)(=O)Oc2ccc(OC)cc2)cc1` (stereo not given), the inhibition is inactive: 1.44%.

In the case of `CCOC(=O)c1ccc(NC(=O)C(C)(CCl)SC)cc1` (stereo not given), the inhibition was inactive: 1.06%.

Consider `CCOP(C)(=S)SCC(=O)NC(C)C(=O)O` (stereo not given), for which the inhibition is inactive: 3.1%. Take `O=C(OC1CN2CCC1CC2)c1cccc([N+](=O)[O-])c1` (stereo not given): the inhibition was inactive: 2.66%. The figure for `O=C(Nc1ccncc1[N+](=O)[O-])c1ccc([N+](=O)[O-])cc1[N+](=O)[O-]` is inactive: 0.136%. The figure for `Cc1cc(C)cc(OP(C)(=O)Nc2ccc(SC(F)(F)F)cc2)c1` (stereo not given) is inactive: -0.685%; for `CP(=O)(NC(=O)Nc1ccccc1)Oc1ccccc1` (stereo not given) it is inactive: 1.36%; for `O=C(COc1ccccc1)OC1CN2CCC1CC2` (stereo not given) it is inactive: -3.31%.

Turning to `CCc1ccc(OP(C)(=O)N2CCN(c3ccc([N+](=O)[O-])cc3)CC2)cc1` (stereo not given), the inhibition is inactive: -2.03%. The figure for `CP(=O)(Oc1ccccc1)OC(c1ccccc1)C(F)(F)F` (stereo not given) is inactive: -2.69%. The figure for `COP1(=S)c2c(C)nn(CCC#N)c2N=C(c2ccc(F)cc2)N1C` (stereo not given) is inactive: 2.03%; for `CP(=O)(Nc1ccc(SC(F)(F)F)cc1)Oc1ccc(Cl)cc1` (stereo not given) it is inactive: 1.19%; for `Cc1cccc(C)c1OP(C)(=O)Nc1ccc(SC(F)(F)F)cc1` (stereo not given) it is inactive: -1.89%.

By inhibition is commonly meant the relative decrease from the control value, in per cent.

The values are drawn from PubChem BioAssay AID2216 (Broad Institute, 2009).
